Consider 1 compound from ChEMBL document CHEMBL1142524, “Virtual screening to successfully identify novel janus kinase 3 inhibitors: a sequential focused screening approach” (J Med Chem, 2008).

Chains of the proteins cited; added tags and fusions are not shown. Lines headed by an entry give the natural chain unless they say otherwise; changes in a name come on top.
UniProt P23458: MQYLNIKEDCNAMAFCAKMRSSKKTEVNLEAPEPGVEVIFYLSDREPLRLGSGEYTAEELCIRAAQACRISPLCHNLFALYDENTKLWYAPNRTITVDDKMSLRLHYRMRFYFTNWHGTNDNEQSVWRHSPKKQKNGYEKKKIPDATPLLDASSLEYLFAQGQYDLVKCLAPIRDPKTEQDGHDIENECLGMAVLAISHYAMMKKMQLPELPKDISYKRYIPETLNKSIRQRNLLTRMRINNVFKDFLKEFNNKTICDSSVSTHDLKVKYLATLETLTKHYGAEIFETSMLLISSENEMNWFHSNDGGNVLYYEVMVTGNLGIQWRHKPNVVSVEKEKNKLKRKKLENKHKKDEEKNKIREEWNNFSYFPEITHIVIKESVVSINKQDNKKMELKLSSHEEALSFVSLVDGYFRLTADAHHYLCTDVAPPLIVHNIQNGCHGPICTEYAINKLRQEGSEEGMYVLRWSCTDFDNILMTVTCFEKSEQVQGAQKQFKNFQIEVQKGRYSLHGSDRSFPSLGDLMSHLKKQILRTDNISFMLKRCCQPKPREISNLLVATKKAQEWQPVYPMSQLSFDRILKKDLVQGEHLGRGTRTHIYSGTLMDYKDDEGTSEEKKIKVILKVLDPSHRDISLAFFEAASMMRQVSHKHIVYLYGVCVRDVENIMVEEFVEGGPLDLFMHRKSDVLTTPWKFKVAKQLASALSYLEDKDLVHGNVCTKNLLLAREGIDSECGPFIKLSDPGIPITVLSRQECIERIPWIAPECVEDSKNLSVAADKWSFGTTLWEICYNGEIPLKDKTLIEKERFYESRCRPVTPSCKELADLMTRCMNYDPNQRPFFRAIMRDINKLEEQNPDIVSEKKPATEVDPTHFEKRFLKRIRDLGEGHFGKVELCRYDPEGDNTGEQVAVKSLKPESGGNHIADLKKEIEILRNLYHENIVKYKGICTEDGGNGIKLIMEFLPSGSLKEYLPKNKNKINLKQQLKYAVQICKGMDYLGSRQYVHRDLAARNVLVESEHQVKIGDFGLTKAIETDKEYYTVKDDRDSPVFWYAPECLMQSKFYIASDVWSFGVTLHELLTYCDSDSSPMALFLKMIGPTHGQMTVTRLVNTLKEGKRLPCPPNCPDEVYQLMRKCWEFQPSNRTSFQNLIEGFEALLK

The assay addresses Tyrosine-protein kinase JAK1 (Homo sapiens, UniProt P23458).

As to `CC(C)(C)c1nc2c3ccc(F)cc3c3c(=O)[nH]ccc3c2[nH]1`, half-maximal inhibition (IC50) was put at 15 nM.
